This is an account of results in PubChem BioAssay AID1230 (PCMD, 2008).

The chains behind the UniProt entries cited, without tags or fusion partners.
UniProt Q00987, whole entry: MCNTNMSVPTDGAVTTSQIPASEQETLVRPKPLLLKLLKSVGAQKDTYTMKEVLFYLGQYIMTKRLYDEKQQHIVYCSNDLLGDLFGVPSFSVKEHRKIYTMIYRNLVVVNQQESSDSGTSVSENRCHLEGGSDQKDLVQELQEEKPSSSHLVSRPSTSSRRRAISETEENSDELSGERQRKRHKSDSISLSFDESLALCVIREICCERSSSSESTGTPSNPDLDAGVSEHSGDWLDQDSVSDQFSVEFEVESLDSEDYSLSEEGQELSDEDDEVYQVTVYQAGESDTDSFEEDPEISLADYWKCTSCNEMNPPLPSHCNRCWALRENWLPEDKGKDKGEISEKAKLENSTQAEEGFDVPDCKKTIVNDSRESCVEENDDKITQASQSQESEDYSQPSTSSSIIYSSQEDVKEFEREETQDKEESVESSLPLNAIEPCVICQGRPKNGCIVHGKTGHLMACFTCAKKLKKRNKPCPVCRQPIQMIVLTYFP

This is a selection; strong and weak results do not stand in their true shares. Calls of active or inactive are those of the source.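 Rule for the calls: active = signal enhancement of 30% or more; inactive = the rest.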

This test concerns the target E3 ubiquitin-protein ligase Mdm2 (Homo sapiens) (UniProt Q00987). Nature of the test: increase of MDM2 autoubiquitination reporter luminescence – cell-based, 1536-well, MDM2 E3 ligase inhibitor project, primary screen (AID 1230).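 Note: higher signal means inhibition of MDM2 E3 ligase activity.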 Particulars: cell-based MDM2 ubiquitination luciferase reporter, 2 h; at 5 µM; stronger effect = higher value; 0 = plate control, 100 = twice control, blank-subtracted. A digest of the protocol: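 Test system: mammalian cells stably expressing self-ubiquitinating, self-degrading MDM2 E3–luciferase fusion; Amount: 2000 cells in each well; Medium: DMEM; Schedule: 4 h settle plus 2 h compound, 37 °C; Technique: SteadyLite luciferase luminescence after 15 min room-temperature reagent incubation; Benchmarks: plate control and blank wells.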
For orientation: A reporter such as luciferase makes a cellular process visible.
As to `COc1ccccc1OP(C)(=O)Nc1ccc(C)cc1` (stereo unspecified), the signal enhancement was inactive: -9.83%.
On to `Cc1ccc(NP(C)(=O)Oc2ccccc2)c(C)c1` (stereo unspecified), for which the signal enhancement is inactive: -1.6%.
On to `CCOC(=O)c1ccc(NP(C)(=O)Oc2ccccc2)cc1` (stereo unspecified), for which the signal enhancement was inactive: 4.39%.
As for `Cc1cc(C)cc(OP(C)(N)=O)c1` (stereo unspecified), the signal enhancement is inactive: -9.16%.
For `COc1ccccc1OP(C)(=O)Nc1cc(Cl)ccc1C` (stereo unspecified), the signal enhancement was inactive: -29.8%.
The result for `COc1ccc(OP(C)(=O)Nc2cccc(F)c2)cc1` (stereo unspecified) reads inactive: -1.85%; that for `O=[N+]([O-])c1ccc2c(c1)C=Nc1ccccc1O2`, inactive: -5.19%; that for `CC(C)(C)c1ccc(OP(C)(=O)Nc2ccc(SC(F)(F)F)cc2)cc1` (stereo unspecified), inactive: -0.15%.
As to `Cc1cccc(C)c1OP(C)(N)=O` (stereo unspecified), the signal enhancement was inactive: 6.21%.
For `CP(=S)(Nn1cnnc1)Oc1ccccc1` (stereo unspecified), the signal enhancement is inactive: 4.34%.
In the case of `CP(=O)(Nc1ccccc1Br)Oc1ccccc1` (stereo unspecified), the signal enhancement is inactive: -17.7%.
In the case of `COc1ccccc1OP(C)(=O)Nc1ccccc1` (stereo unspecified) it was inactive: -4.25%.
In the case of `CCOC(=O)c1ccc(NP(C)(=O)Oc2ccc(OC)cc2)cc1` (stereo unspecified) it was inactive: -12.2%; in that of `CCOP(C)(=S)SCC(=O)NC(C)C(=O)O` (stereo unspecified), inactive: -2.49%; in that of `CP(=O)(Nc1ccccn1)Oc1ccc(Cl)cc1` (stereo unspecified), inactive: -9.84%.
Consider `Cc1cccc(C)c1OP(C)(=O)Nc1ccc(SC(F)(F)F)cc1` (stereo unspecified), for which the signal enhancement was inactive: -7.99%.
With `CP(=O)(Nc1ccc(SC(F)(F)F)cc1)Oc1ccc(Cl)cc1` (stereo unspecified), the signal enhancement was inactive: -12.1%.
`CP(=O)(Oc1ccccc1)OC(c1ccccc1)C(F)(F)F` (stereo unspecified): the signal enhancement is inactive: 1.42%.
In the case of `CCc1ccc(OP(C)(=O)N2CCN(c3ccc([N+](=O)[O-])cc3)CC2)cc1` (stereo unspecified) it was inactive: -9.53%; in that of `CP(=O)(NC(=O)Nc1ccccc1)Oc1ccccc1` (stereo unspecified), inactive: -12.8%; in that of `Cc1cc(C)cc(OP(C)(=O)Nc2ccc(SC(F)(F)F)cc2)c1` (stereo unspecified), inactive: 4.54%.
